Earlier results on 1 substance are cited in PMC3983361.

By UniProt entry, the sequences of proteins in these tests, tags left out. Residues count along the entry.
UniProt P05067, 672-711: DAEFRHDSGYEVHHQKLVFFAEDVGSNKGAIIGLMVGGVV
UniProt P02649, 19-317: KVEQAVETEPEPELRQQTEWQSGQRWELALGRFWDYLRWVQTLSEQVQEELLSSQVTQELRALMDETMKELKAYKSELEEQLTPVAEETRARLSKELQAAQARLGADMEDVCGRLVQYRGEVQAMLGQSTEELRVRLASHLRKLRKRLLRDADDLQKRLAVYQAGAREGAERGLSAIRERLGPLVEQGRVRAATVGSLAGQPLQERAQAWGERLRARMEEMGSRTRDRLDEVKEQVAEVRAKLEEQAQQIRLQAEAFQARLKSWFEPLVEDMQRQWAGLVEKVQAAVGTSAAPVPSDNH

The target in the data set is Aβ40 (Homo sapiens) (UniProt P05067).

What is called Kd is a measure of binding affinity in units of concentration. As for apoE (from UniProt P02649), the Kd was 20 nM.
